Source: PMC7762994 (Viruses, 2020)

The chains behind the UniProt entries cited, without tags or fusion partners.
UniProt O15527, whole entry: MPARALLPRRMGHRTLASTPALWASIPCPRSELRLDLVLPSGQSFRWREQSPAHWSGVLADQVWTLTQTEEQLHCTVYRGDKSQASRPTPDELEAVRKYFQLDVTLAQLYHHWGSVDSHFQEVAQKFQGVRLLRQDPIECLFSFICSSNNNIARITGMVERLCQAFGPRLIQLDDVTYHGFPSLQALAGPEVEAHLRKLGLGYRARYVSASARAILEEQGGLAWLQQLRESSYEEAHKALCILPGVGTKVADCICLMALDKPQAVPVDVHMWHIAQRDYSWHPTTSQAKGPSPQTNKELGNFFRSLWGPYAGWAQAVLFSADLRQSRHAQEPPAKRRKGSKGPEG

Molecular target: OGG1 (Homo sapiens, UniProt O15527)
Experiment: In vitro OGG1 activity assay
Type: biochemical

## O=C(Nc1ccc(I)cc1)N1CCC(n2c(=O)[nH]c3cc(Cl)ccc32)CC1 [TH3289]
IC50 of OGG1 inhibition
  IC50: 1600 nM
hOGG1 IC50 (nM)
  IC50: 1620 nM
